By UniProt entry, the sequences of proteins in these tests, tags left out.
UniProt Q01959, whole entry: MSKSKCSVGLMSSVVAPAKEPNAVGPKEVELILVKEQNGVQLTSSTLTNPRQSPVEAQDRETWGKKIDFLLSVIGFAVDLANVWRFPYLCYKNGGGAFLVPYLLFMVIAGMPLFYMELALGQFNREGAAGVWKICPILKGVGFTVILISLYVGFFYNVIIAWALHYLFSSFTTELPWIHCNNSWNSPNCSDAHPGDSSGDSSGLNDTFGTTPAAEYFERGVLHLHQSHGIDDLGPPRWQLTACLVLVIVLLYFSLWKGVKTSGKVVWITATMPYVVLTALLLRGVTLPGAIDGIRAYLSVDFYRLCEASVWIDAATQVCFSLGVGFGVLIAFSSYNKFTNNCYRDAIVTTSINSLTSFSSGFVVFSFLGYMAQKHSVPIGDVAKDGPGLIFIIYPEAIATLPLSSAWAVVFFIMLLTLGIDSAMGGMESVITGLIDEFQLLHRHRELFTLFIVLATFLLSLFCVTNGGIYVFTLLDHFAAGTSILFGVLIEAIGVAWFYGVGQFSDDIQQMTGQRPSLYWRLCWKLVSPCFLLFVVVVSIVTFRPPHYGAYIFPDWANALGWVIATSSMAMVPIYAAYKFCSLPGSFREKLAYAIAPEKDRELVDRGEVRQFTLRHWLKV

According to publication PMC7811517, “Human neuronal signaling and communication assays to assess functional neurotoxicity” (Archives of Toxicology, 2020):

Target: dopamine transporter (DAT) (Homo sapiens, UniProt Q01959)
Type: cell-based

SMILES: c1ccc(CCCN2CCN(CCOC(c3ccccc3)c3ccccc3)CC2)cc1 [GBR12935]
- effect on uptake of [3H]DA: inhibited; also recorded: significantly reduced

“Also recorded” adds a separate entry of the source.
